Holding throughout (test): competitive radiometric binding, tritiated E2
Assay [1] addresses WT-ER (ERα) (Homo sapiens, UniProt P03372, Y537S).
Assay [2] deals with WT-ER (ERα) (Homo sapiens, UniProt P03372).
In assay [3] the target is WT-ER (ERα) (Homo sapiens, UniProt P03372, D538G).

Protein sequences, listed by entry. Tags and fused reporters are not part of them.
UniProt P03372, whole entry Y537S: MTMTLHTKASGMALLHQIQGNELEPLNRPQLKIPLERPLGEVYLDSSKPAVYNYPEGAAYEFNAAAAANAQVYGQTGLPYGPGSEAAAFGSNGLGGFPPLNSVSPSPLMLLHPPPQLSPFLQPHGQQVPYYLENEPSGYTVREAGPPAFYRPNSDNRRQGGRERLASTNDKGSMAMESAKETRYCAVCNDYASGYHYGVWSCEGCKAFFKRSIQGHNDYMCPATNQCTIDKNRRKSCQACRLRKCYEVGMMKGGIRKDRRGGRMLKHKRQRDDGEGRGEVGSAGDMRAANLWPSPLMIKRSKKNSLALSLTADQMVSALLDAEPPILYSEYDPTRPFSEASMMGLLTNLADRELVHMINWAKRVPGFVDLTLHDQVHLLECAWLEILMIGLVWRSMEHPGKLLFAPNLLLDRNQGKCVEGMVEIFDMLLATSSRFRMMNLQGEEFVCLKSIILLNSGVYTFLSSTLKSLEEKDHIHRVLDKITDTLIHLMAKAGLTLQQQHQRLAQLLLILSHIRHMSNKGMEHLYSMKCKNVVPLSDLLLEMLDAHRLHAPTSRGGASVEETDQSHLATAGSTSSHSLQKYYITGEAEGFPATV
UniProt P03372, whole entry: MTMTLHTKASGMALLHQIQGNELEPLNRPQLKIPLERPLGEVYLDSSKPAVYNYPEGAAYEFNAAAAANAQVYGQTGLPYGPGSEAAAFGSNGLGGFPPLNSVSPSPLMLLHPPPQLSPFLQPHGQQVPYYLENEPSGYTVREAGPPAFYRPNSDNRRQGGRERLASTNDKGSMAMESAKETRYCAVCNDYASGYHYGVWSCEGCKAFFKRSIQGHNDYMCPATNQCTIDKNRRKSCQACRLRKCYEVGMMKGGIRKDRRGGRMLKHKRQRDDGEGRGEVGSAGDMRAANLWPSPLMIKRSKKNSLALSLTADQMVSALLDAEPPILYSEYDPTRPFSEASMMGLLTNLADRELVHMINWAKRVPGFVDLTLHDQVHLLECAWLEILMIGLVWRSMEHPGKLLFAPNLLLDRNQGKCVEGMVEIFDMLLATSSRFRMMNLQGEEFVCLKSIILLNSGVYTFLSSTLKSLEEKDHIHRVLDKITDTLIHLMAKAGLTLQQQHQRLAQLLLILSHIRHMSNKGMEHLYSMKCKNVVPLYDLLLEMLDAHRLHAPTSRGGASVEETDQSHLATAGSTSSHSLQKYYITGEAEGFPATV
UniProt P03372, whole entry D538G: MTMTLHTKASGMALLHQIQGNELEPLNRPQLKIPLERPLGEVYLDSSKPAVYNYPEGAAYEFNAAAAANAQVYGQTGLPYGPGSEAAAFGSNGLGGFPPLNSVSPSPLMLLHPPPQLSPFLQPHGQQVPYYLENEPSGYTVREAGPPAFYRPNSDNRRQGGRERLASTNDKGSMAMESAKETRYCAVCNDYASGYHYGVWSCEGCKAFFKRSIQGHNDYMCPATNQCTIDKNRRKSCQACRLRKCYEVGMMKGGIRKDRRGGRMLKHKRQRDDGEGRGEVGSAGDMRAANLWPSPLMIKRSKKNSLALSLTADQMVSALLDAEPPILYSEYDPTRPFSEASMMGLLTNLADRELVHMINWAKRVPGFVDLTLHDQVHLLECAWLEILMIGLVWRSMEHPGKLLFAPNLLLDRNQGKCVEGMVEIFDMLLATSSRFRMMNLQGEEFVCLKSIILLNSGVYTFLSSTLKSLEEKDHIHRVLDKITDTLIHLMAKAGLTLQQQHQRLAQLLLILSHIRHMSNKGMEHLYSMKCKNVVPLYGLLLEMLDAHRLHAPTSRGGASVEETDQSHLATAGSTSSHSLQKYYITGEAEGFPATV

Take `C[C@@H]1Cc2c([nH]c3ccccc23)[C@@H](c2c(F)cc(/C=C/C(=O)O)cc2F)N1CC(C)(C)F` [AZD 9496]: the inhibition constant Ki at WT-ER (ERα) [1] came to 5.2 ± 1.16 nM; at WT-ER (ERα) [2] it was 0.19 ± 0.05 nM; at WT-ER (ERα) [3] it was 7.52 ± 1.9 nM.

In general, Ki refers to the equilibrium dissociation constant of an inhibitor or competing ligand from its target. Read a low Ki as higher affinity.

The record behind these values is paper PMC5645250 (Cancer research, 2017).
